Our source for the IC50 values is patent publication US11345678B2, “Benzopyrazole compound used as RHO kinase inhibitor” (MEDSHINE DISCOVERY INC., priority 2018, dated 2022).

The chains behind the UniProt entries cited, without tags or fusion partners.
UniProt O75116, whole entry: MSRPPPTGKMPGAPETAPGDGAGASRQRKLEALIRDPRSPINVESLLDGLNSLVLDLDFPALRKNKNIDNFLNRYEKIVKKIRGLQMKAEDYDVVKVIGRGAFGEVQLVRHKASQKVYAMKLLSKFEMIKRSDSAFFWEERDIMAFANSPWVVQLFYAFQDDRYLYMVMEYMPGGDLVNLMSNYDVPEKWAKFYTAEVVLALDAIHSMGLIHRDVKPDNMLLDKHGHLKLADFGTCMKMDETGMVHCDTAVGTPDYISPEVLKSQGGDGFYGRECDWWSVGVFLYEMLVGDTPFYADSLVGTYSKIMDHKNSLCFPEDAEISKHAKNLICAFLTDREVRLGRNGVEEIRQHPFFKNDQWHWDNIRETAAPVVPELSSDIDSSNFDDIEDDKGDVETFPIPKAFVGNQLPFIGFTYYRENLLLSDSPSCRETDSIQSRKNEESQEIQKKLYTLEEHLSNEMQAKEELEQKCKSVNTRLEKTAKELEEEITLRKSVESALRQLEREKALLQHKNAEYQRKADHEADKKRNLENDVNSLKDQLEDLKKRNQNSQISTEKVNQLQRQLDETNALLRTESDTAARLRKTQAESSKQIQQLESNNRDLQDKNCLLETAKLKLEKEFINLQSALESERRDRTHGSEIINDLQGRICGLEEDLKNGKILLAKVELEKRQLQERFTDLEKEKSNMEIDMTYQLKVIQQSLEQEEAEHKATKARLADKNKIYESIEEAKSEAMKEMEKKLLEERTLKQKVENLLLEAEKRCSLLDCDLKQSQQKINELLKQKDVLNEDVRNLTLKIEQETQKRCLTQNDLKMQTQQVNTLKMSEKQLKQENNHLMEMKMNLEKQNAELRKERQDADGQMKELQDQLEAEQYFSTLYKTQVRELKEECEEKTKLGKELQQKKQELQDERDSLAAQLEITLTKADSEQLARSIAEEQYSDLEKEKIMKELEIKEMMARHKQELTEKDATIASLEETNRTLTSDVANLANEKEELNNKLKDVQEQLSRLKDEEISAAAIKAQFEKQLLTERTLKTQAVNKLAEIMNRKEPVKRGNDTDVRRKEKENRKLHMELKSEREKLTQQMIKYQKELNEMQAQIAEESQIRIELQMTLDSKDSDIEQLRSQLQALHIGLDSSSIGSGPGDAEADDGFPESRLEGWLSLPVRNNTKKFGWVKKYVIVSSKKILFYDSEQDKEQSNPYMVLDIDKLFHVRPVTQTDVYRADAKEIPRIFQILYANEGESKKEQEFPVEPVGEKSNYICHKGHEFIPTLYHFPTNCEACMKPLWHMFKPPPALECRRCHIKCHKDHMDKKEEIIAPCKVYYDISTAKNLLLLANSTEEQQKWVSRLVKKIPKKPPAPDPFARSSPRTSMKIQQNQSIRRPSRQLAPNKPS

The target of this assay is ROCK2 (Homo sapiens (Human), UniProt O75116). Description: In vitro inhibitory activity against ROCK protein kinase (33P-ATP filter-binding), ROCK2. Particulars: read-out: IC50 against ROCK2, 1 nM ROCK protein kinase, 20 μM Long S6 Kinase substrate peptide. Here is the method: 1. In Vitro Evaluation of the Inhibitory Activity Against ROCK Protein Kinase
Experimental purpose: to detect the inhibitory IC50 value of the compound against ROCK protein kinase.
Assay buffer solution: 20 mM 4-hydroxyethylpiperazine ethanesulfonic acid (pH 7.5), 10 mM magnesium chloride, 1 mM ethylene glycol-bis-(2-aminoethyl)tetraacetic acid, 0.02% polyethylene glycol monododecyl ether, 0.02 mg/mL bovine serum albumin, 0.1 mM sodium vanadate, 2 mM dithiothreitol, 1% DMSO.
The freshly prepared buffer solution was added to ROCK protein kinase substrate (Long S6 Kinase substrate peptide), at a concentration of 20 μM, then 1 nM ROCK protein kinase was added thereto and stirred evenly. Echo550 was used to add a series of DMSO dilutions containing the test compound (starting from 10 μM, serially diluted by 3 times), the solution was pre-incubated at room temperature for 20 minutes, then ^33P-ATP (radiation intensity 10 μCi/μL) was added to initiate the reaction, and the reaction was performed at room temperature for two hours. Then the solution was filtered by P81 ion exchange paper (Whatman #3698-915) and washed with 0.75% phosphoric acid. The radiation intensity was determined by Filter-Binding method.
The protein kinase inhibitory activity of the compound was expressed as the remaining protein kinase activity relative to the blank substrate (simply DMSO). […]

The IC50 is the concentration that inhibits the measured activity by half. `COc1cccc(C(CN)NC(=O)c2cc(-c3ccc4[nH]nc(C)c4c3)ccn2)c1` (stereo not shown) [Compound 40]: the IC50 was found to be 2 nM.
